According to US8106073B2, “Quinoline derivatives 057” (AstraZeneca AB, priority 2007, dated 2012):

System: primary rat hepatocytes
Assay: In vitro phospholipidosis protocol (DHPE-TRITC accumulation)
Procedure: Assessment of a compounds potential to induce phospholipidosis was determined by an in vitro fluorescent assay which reports the accumulation of phospholipids in primary rat hepatocytes. Hepatocytes were isolated from Han Wistar rats by a 2-stage collagenase digest method. The hepatocytes were then plated on collagen coated 96-well plates in William's E medium. The cells were left to adhere for 1 hour then the media was replaced with a solution of 250 μg.ml^−1 collagen in Hepatozyme cell culture medium.
Cells were then cultured for 48 hours with the medium being changed at 24 hours. At 48 hours post isolation the medium was changed to Hepatozyme supplemented with the fluorescent phospholipid N-(6-tetramethylrhodaminethiocarbamoyl)-1,2-dihexadecanoyl-sn-glycero-3-phosphoethanolamine (DHPE-TRITC) (5 μg.ml^−1). At this time, test compounds were added to the hepatocytes at a range of concentrations in a serial dilution with a final concentration of 0.4% dimethylsulfoxide (used as solvent for test compounds).
The cells were incubated for a further 24 hours and then fixed by addition of a phosphate buffered saline (PBS) solution containing the nuclear stain Hoechst 33342 (final concentration 2 μM) and paraformaldehyde solution (final concentration 4%). The plates were kept at room temperature for 30 minutes then washed three times in PBS solution.
Images of the hepatocytes were then acquired using an automated microscope platform (GE In Cell Analyser 3000). Image analysis algorithms were then used to assess cell viability and the accumulation of the DHPE-TRITC label within viable hepatocytes. The quantified accumulation observed with test compounds was then normalised to a range of 0, representing the accumulation observed in cells exposed to vehicle only, and 1, representing cells exposed to 10 μM amiodarone. The maximum accumulation across the dose response of the test compound, where cell viability is >50%, is reported, as is the dose at which this maximum was observed. The lowest dose that caused >50% cell toxicity is also reported. […]

N[C@H]1CCN(c2ccc3c(C(=O)NCC4CCCCC4)c(Cl)ccc3n2)C1
maximum accumulation concentration (dose at which maximum accumulation was observed): 8 µM | minimum toxic concentration (lowest dose that caused >50% cell toxicity): 23 µM | maximum accumulation (phospholipidosis) (relative to 10 μM amiodarone control (=1), vehicle = 0, cell viability >50%): 0.6
